## Antibody variant affinities, Ab-14 heavy chain, assay B

From the AlphaSeq antibody data of Li et al. 2023 (doi:10.1038/s41467-023-39022-2), copy in the FLAb collection.

All variants were tested on one target, the spike HR2 peptide PDVDLGDISGINAS (SARS-CoV-2).

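The starting antibody came from a phage panning campaign against this peptide. This is the validation round: designs drawn from the data on random variants, tested in the same kind of assay. Group labels follow the data file (Ctrl: baseline library sampled from a position-specific scoring matrix, with some repeated check sequences; Rand: our label for a block that the file lists under HC and that is probably the random mutants of the ten best first-round binders; En: ensemble of fine-tuned language models; GP: Gaussian process model; GPLM: also part of the Gaussian process libraries; HC: hill climbing; Gen: genetic algorithm; Gibbs: Gibbs sampling; a sequence that several methods proposed may carry one label only). The scFvs were displayed on barcoded MATa yeast, the peptide on MATalpha yeast. Mating (16 h, 30 °C) was followed by selection of diploids and sequencing of their barcodes. Each replicate has its own calibration line, from reference interactions of the BCL2 family. Mating was done six times.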

Parent: Ab-14, a human scFv built as VH, three GGGGS repeats, VL. Only the CDRs of the heavy chain vary.
VH: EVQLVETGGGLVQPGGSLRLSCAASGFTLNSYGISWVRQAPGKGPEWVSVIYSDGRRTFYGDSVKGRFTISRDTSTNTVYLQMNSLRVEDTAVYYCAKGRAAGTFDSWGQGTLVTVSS
VL: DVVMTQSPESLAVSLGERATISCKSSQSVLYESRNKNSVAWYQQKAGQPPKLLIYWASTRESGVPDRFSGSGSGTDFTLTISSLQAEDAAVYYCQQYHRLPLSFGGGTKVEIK

Each variant is given by its three heavy chain CDRs, as the data file delimits them; those of the parent are GFTLNSYGIS, VIYSDGRRTFYGDSVK, GRAAGTFDS.
Each Kd is an estimate from the mating assay, the geometric mean of the replicates in which the pair was seen; lower is stronger.
"no signal" marks a missing value. The strain was present, yet no cells mated with the target were sequenced in any replicate, which points to weak or no binding.
The authors averaged sequences with at least three values out of six and counted those with two or fewer as poor binders.
Of ten entries with the parent sequence, four were seen in most replicates (averages 2.2 nM to 240 nM), three in one and three in none, so single entries are noisy.
Nonspecific signal, from three strains lacking the peptide, appeared in 1% of pairings of all heavy chain designs, centred on 120 nM (5% of these signals below 7.0 nM); values are not corrected for it. The control count says in how many pairings with the empty strains this scFv gave a signal.
Some sequences occur more than once in the pool; their replicates are pooled.
Values of this round are not directly comparable with the first-round values of the same sequences.

CDR-H1,CDR-H2,CDR-H3,group,Kd,detected,signal with controls
GFSLNSYGIS,VIYADGRRTFYGDSVK,GRAAGTFDL,GPLM_Gen,1.5 nM,6/6,1/18
GENIEEYGIS,VIYADGRRTAYAEPVK,GQSGGTIDT,En_Gibbs,88 nM,1/6,0/18
GFTLNQYGIS,VIYSDGQRTFYSDSVK,GRAAGTFDS,GPLM_HC,1.1 nM,6/6,1/18
GFDLNEYGIS,VIYADGMRTAYADKVK,GNNAGTFDM,En_Gen,770 pM,6/6,0/18
GFALNSYGIS,VIYSDGRRTFYENSVK,GRAAGTFNS,Ctrl,no signal,0/6,0/18
GFTLDSYGIS,VIYADGRRTFYGDSVK,GRAAGTFVS,GP_HC,no signal,0/6,0/18
GNEINSYGIS,VIYADGGRTFYGDSVK,GRAAGTGDS,Ctrl,no signal,0/6,0/18
GFNLDEYGIS,VIYADGRRTAYADSVK,GQVAGTFLS,En_HC,410 pM,6/6,0/18
HFDLNSYGIS,VIYSDGRRTFYADSVK,GRTAGTFDS,GP_Gen,3.9 nM,6/6,0/18
GFDLDEYGIS,VIYADGRRTFYADSVK,GQNAGTFDQ,En_HC,1.4 nM,6/6,0/18
GEQLNEYGIS,VIYADGRRTAYSQSVK,GLNGGIIDV,En_Gibbs,38 nM,1/6,0/18
GFNLNEYGIS,VIYADGMRTFYADSVK,GEIAGTFDV,En_HC,350 pM,6/6,2/18
GFKLEEYGIS,VIYADGKRVAYQDAVK,GKHAGMFMV,En_Gibbs,no signal,0/6,0/18
GFDLNEYGIS,VIYADGQRTAYTDSVK,GNNAGTFDI,En_Gen,1.2 nM,1/6,0/18
GFTLNSYGIS,VIYSDGRRTFYGDSVK,GRTAGTFDV,GPLM_Gen,no signal,0/6,0/18
GFELEEYGIS,VIYADGQRTFYADNVK,GDVDTVVHY,En_Gibbs,67 nM,1/6,0/18
GFSLNSYGIS,VIYSDGRRTFYDDSVK,GKNAGTFDS,GPLM_Gibbs,2.6 nM,6/6,1/18
GFDLNEYGIS,VIYADGMRTAYADSVK,GKVAGTFDI,En_Gen,170 pM,6/6,0/18
GDNLEEYGIS,VIYADGFRSHYAEKVK,GQQAGFFIK,En_Gibbs,no signal,0/6,0/18
GFELDEYGIS,VIYADGVRTQYKQSFK,GGSFGYIAG,En_Gibbs,no signal,0/6,0/18
GFSLNSYGIS,VIYSDGRRTFYGDSVK,GRMAGTFDS,GPLM_Gen,23 nM,6/6,1/18
GFTLASYGIS,VIYSDGRRTPYQDSVK,GWAAGTKDS,Ctrl,no signal,0/6,0/18
GFDLNEYGIS,VIYADGVRTAYSDSVK,GNVAGTFDA,En_Gen,610 pM,6/6,1/18

The remaining entries, values ahead:

Kd,detected,signal with controls,CDR-H1,CDR-H2,CDR-H3,group
3.3 nM,6/6,0/18,GFDLNEYGIS,VIYADGMRTFYSDSVK,GNAGGTFDV,En_HC
no signal,0/6,0/18,GFTLNSYSIS,VIYSDGRRTFYSDSVD,GRAAGYFDS,Ctrl
8.5 nM,6/6,1/18,GFSLNSYGIS,VIYSDGRRTFYQDDVK,GQAAGTFDS,GP_Gen
no signal,0/6,0/18,GFTLNEYGIS,VIYSDGRRTFYGDSVK,SRAAVTFDQ,Rand
87 nM,1/6,0/18,GFTLNEYGIS,VIYSDGRRTAYGDSVK,GHAAATFDS,Ctrl
4.1 nM,12/12,1/36,GFSLNSYGIS,VIYSDGRRTFYQDSVK,GRNAGTFDS,Ctrl+GP_Gen
36 nM,6/6,0/18,DFTLNSYGIS,VIYSDGRRTFYDDSVK,GQTAGTFDS,GP_HC
no signal,0/6,0/18,GFTLNEYGIS,VIMSDGRRTFYTDSVK,GRFAGTFDS,Rand
no signal,0/6,0/18,GFDLNSYGIS,VIYSDGRRTFYSDSVK,GSAGGTFDS,GPLM_HC
no signal,0/6,0/18,GFTLNSYGIS,VIYSDGRRKFYGDSVK,GRAAGTFVS,Ctrl
no signal,0/6,0/18,GFTLNEYGIS,VIYSDGRRTFYSDSVK,GRAAGFFTS,GPLM_HC
no signal,0/6,0/18,GFLLNSYGMS,VIYADGRRTFYGDSVK,GRAAGTKKS,Rand
no signal,0/6,0/18,YFTLNEYGNS,VIYSDGRRTFYDDHVK,GRAQVTFDQ,Rand
no signal,0/6,0/18,GFDINEYGIS,VIFADGMRTAYLNSVK,GQMAGLFIM,En_Gibbs
no signal,0/6,0/18,GFTLNSYGIS,VIYSDERRTFYDDSVK,GQLAGTFDS,Rand
no signal,0/6,0/18,GFDLDEYGIS,VIYADGVREAYIDSVK,GNWSGTMMY,En_Gibbs
400 pM,5/6,0/18,GFDLNEYGIS,VIYSDGRRTFYGDSVK,GQTAGTFDS,GP_Gen
no signal,0/6,0/18,GFNLDEYGIS,VIYADGMRENYADSVK,DGSWVQQLG,En_Gibbs
no signal,0/6,0/18,GFTLNSYGIS,VIYRDGRRTFYGDSVK,GRIGGSFDS,Ctrl
3.8 nM,6/6,0/18,GFSLNSYGIS,VIYSDGRRTFYSDSVK,GQAAGTFDD,GP_Gen
480 pM,6/6,0/18,GFDLDEYGIS,VIYADGVRTAYADSVK,GQNAGTFDV,En_Gen
9.7 nM,6/6,0/18,GFGLNSYGIS,VIYSDGRRTFYQDSVK,GRTAGTFDS,GPLM_Gen
640 pM,6/6,0/18,GFDLDEYGIS,VIYADGMRTAYIDSVK,GENAGTFDL,En_Gen
no signal,0/6,0/18,GFTFNSYGIS,VIYSDGRRTFYHDSVK,GRWAGTFDS,Ctrl

Extract of 6 entries:

CDR-H1,CDR-H2,CDR-H3,group,Kd,detected,signal with controls
GFELEEYGIS,VIYADGQRTFYADNVK,GDVDTVVHY,En_Gibbs,67 nM,1/6,0/18
GFTLNSYGIS,VIYRDGRRTFYGDSVK,GRIGGSFDS,Ctrl,no signal,0/6,0/18
HFDLNSYGIS,VIYSDGRRTFYADSVK,GRTAGTFDS,GP_Gen,3.9 nM,6/6,0/18
GFSLNSYGIS,VIYSDGRRTFYQDDVK,GQAAGTFDS,GP_Gen,8.5 nM,6/6,1/18
GFTLDSYGIS,VIYADGRRTFYGDSVK,GRAAGTFVS,GP_HC,no signal,0/6,0/18
GFDLNEYGIS,VIYADGMRTAYADSVK,GKVAGTFDI,En_Gen,170 pM,6/6,0/18